DENV2 CPE rescue – inhibitors of DENV2 cytopathic effect, primary screen, cell-based, plate reader, single concentration | CPE inhibition, % at 9.99 µM | AID 651640, 2012 | DENV2-infected cells, cytopathic effect rescue | 1.7% of 350,000 active; in the data active = CPE inhibition above about 20%, passing the limit was not always enough; inconclusive = no clear call, values can overlap the other calls; tested in BHK-21 cells
E-selectin induc – E-selectin induction in HUVECs, primary screen, imaging, HUVEC, immunofluorescence imaging, single point. P16581. normalized: neutral wells 0, TNF-alpha wells 100. activation, % at 7.58 µM. 0.37% of 260,000 active;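 active = mean E-selectin-positive cell signal at least 10% of the positive control, reached in at least 60% of replicates, without over 20% cell loss; inconclusive = no rule given, readout overlaps actives, possibly toxicity-flagged; inactive = the rest, including those meeting only one limit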
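Material: HUVEC primary endothelial cells; Amount: 3,000 cells per well; Dosing: single concentration; Medium: EGM-2 growth medium on 0.1% gelatin-coated wells; Read-out basis: percent E-selectin-positive cells; Signal: immunofluorescence imaging; Control set: TNF-alpha, DMSO.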
UUG fidelity – alters start codon recognition fidelity in yeast. S. cerevisiae UUG-firefly luciferase reporter, luminescence/redox ratio. 350,000 tested, 0.13% active. activity score, % at 18.7 µM. AID 602363;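 active means replicate mean at a twofold rise or more, about +100% in these data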;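 further: firefly luciferase made from a UUG start codon reports start codon fidelity; reporter light over untreated wells divided by growth signal over untreated wells; some hits fall short of that in this replicate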
Cneo AK release – Cryptococcus neoformans cell lysis inducers, primary screen, AK release luminescence, single concentration; C. neoformans lysis, adenylate kinase release luminescence, 4 h; normalised: neutral wells 0, clomiphene wells 100; lysis activity, % at 15 µM; 0.2% of 360,000 active;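 active = mean lysis activity across replicates of at least 80%, whatever share of replicates individually reach that level; inactive = mean lysis activity below 80%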
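Material: C. neoformans cells | Amount: Yeast cell density of 5 × 10^6 cells/mL | Medium: Fresh YPD growth medium | Dosing: Single dose | Times: Static 4 h at 37 °C with compound, 1 h detection | Detection: AK luminescence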
Large screens that a line does not name were inactive. An excerpt weighted towards active compounds, which were near 1.8% of everything screened.

COc1ccc(S(=O)(=O)Nc2ccc3c(c2)C(=O)N([C@@H](C)CO)C[C@H](C)[C@@H](CN(C)C)OCCCC[C@H](C)O3)cc1	Cneo AK release 91 (no result: UUG fidelity)
C[C@H]1CN([C@@H](C)CO)C(=O)c2cc(NC(=O)NC3CCCCC3)ccc2O[C@H]1CN(C)Cc1ccc2c(c1)OCO2	none
COc1cc(/C=N/NC(=O)c2cc(-c3ccccc3Cl)nc3ccccc23)cc(OC)c1O	none (no result: E-selectin induc, UUG fidelity, Cneo AK release)
COc1cc(/C=N/NC(=O)c2cc(-c3ccco3)nc3ccccc23)cc(OC)c1O	DENV2 CPE rescue 31 (no result: UUG fidelity, Cneo AK release)
CC1(C(=O)NS(=O)(=O)Cc2cccc(Cl)c2)CCN1C(=O)c1ccc(C2CCCCC2)cc1 (centres undefined)	DENV2 CPE rescue 90
C[C@H](CO)N1C[C@H](C)[C@@H](CN(C)Cc2ccc(Oc3ccccc3)cc2)Oc2ccc(NS(=O)(=O)c3ccc(Cl)cc3)cc2CC1=O	none
NC(=O)C1CCN(CC(O)COc2ccc(-c3ccccc3)cc2)CC1 (centres undefined)	DENV2 CPE rescue 50 (no result: E-selectin induc)
C[C@@H]1CCCCO[C@H](CN(C)C(=O)Nc2cccc3ccccc23)[C@H](C)CN([C@H](C)CO)C(=O)c2cc(NS(=O)(=O)c3ccc(F)cc3)ccc2O1	none
Cc1ccccc1-c1cnc2c(c1)C(=O)N([C@H](C)CO)C[C@H](C)[C@@H](CN(C)C(=O)CC1CC1)O2	none (no result: UUG fidelity)
Cc1ccc2nc(SCC(=O)Nc3ccc(F)cc3F)[nH]c2c1	none (no result: DENV2 CPE rescue, E-selectin induc)
O=C(CSc1nc(=O)[nH]c2c1CCCC2)Nc1ccc(F)cc1F	DENV2 CPE rescue 41 (no result: E-selectin induc)
COc1ccc(-c2cc(N3C(=O)Nc4ccccc4N3O)n[nH]2)cc1OC	DENV2 CPE rescue 38 (no result: E-selectin induc, UUG fidelity, Cneo AK release)
CCCCCCN1C[C@@H](O)[C@H](n2cc(-c3ccc(F)cc3)nn2)C[C@@H]1c1ccc(C)cc1	DENV2 CPE rescue 72
COC(=O)[C@@]12CCCN1[C@H](c1ccc(-c3ccc(F)cc3)cc1)[C@H]1C(=O)N(C)C(=O)[C@H]12	none
COC(=O)[C@@]12CCCCN1[C@H](c1ccc(-c3ccc(F)cc3)cc1)[C@H]1C(=O)N(C)C(=O)[C@H]12	DENV2 CPE rescue 39 (no result: E-selectin induc)
COC(=O)[C@@]12CCCN1[C@H](c1ccc(SC3CCCCC3)cc1)[C@H]1C(=O)N(C)C(=O)[C@H]12	DENV2 CPE rescue 28
C[C@H]1CN([C@@H](C)CO)C(=O)c2cccc(NC(=O)C3CCCCC3)c2O[C@@H]1CN(C)S(=O)(=O)c1cccs1	none
Cc1ccc(C(=O)c2ncc[nH]2)cc1	DENV2 CPE rescue 52
COc1ccc(NS(=O)(=O)c2cccc(Cl)c2Cl)cc1S(=O)(=O)N1CCCCC1	E-selectin induc 134 (no result: UUG fidelity, Cneo AK release)
CCn1c2ccccc2c2nnc(SCN3C(=O)c4ccccc4C3=O)nc21	E-selectin induc 121 (no result: UUG fidelity, Cneo AK release)
CCn1c2ccccc2c2nnc(SCC(N)=O)nc21	none (no result: DENV2 CPE rescue, E-selectin induc)
Cc1noc(C)c1S(=O)(=O)Nc1cccc2c1O[C@H](CN(C)Cc1ccncc1)[C@H](C)CN([C@@H](C)CO)C2=O	DENV2 CPE rescue inconclusive
COc1ccc(S(=O)(=O)N(C)C[C@@H]2Oc3ccc(NS(C)(=O)=O)cc3CC(=O)N([C@@H](C)CO)C[C@H]2C)cc1	DENV2 CPE rescue 48 (no result: E-selectin induc)
COc1ccc(NC(=O)Nc2ccc3c(c2)CC(=O)N([C@H](C)CO)C[C@H](C)[C@@H](CN(C)S(=O)(=O)c2ccc(OC)cc2)O3)cc1	DENV2 CPE rescue 70
COc1ccc(NC(=O)Nc2ccc3c(c2)CC(=O)N([C@H](C)CO)C[C@@H](C)[C@H](CN(C)S(=O)(=O)c2ccc(OC)cc2)O3)cc1	none
COc1ccc(S(=O)(=O)N(C)C[C@@H]2Oc3ccc(NS(C)(=O)=O)cc3CC(=O)N([C@@H](C)CO)C[C@@H]2C)cc1	none (no result: E-selectin induc)
COc1ccc(S(=O)(=O)N(C)C[C@H]2Oc3ccc(NC(=O)Nc4ccc(F)cc4)cc3CC(=O)N([C@@H](C)CO)C[C@H]2C)cc1	DENV2 CPE rescue 23
COc1ccc(S(=O)(=O)N(C)C[C@@H]2Oc3ccc(NC(=O)CCC(F)(F)F)cc3CC(=O)N([C@@H](C)CO)C[C@H]2C)cc1	DENV2 CPE rescue 25
CC(C)CC#Cc1ccc2c(c1)O[C@H](CN(C)C(=O)Cc1ccccc1)[C@H](C)CN([C@H](C)CO)S2(=O)=O	none
Cc1cc2cc(CNC(=O)c3ccc(S(=O)(=O)N4CCCC4)cc3)ccc2n1C	E-selectin induc inconclusive
Cc1cc2cc(CNC(=O)c3ccc(S(=O)(=O)N4CCCCC4)cc3)ccc2n1C	E-selectin induc 82
COc1ccc(S(=O)(=O)N(C)C[C@H]2OCCCC[C@H](C)Oc3ccc(NS(=O)(=O)c4cn(C)cn4)cc3C(=O)N([C@@H](C)CO)C[C@H]2C)cc1	none (no result: E-selectin induc, UUG fidelity)
CCOc1ccc(C(=O)NN2CCOCC2)cc1	DENV2 CPE rescue 154
COCCNC(=S)NCc1ccc2[nH]c3c(c2c1)CCCC3	DENV2 CPE rescue 33
Cc1ccc(NC(=S)NCc2ccc3[nH]c4c(c3c2)CCCC4)cc1	none
O=S(=O)(c1ccccc1F)N1CC[C@@H]2[C@H](CO)Nc3ccc(C4=CCCCC4)cc3[C@@H]21	none
Cc1cc(NC(=O)COC(=O)Cn2[nH]c(=O)c3ccccc3c2=O)c([N+](=O)[O-])cc1C	DENV2 CPE rescue 52 (no result: UUG fidelity, Cneo AK release)
Cc1ccc(S(=O)(=O)N(C)C[C@H]2OCCCC[C@@H](C)Oc3ccc(NS(=O)(=O)c4ccccc4)cc3C(=O)N([C@@H](C)CO)C[C@@H]2C)cc1	none
CCn1c2ccccc2c2cc(NC(=O)c3ccccc3[N+](=O)[O-])ccc21	DENV2 CPE rescue 32 (no result: E-selectin induc, UUG fidelity, Cneo AK release)
C[C@H](CO)N1C[C@H](C)[C@H](CN(C)C(=O)Nc2ccc(F)cc2)Oc2c(NS(=O)(=O)c3ccc(F)cc3)cccc2C1=O	none
O=C([C@@H]1[C@@H](CO)[C@@H]2Cn3c(cccc3=O)[C@H]1N2CC1CCCC1)N1CCc2ccccc2C1	none
C[C@@H]1CN([C@H](C)CO)C(=O)CCCn2nncc2CO[C@@H]1CN(C)Cc1ccc(Cl)c(Cl)c1	DENV2 CPE rescue inconclusive (no result: UUG fidelity)
COc1ccc(-c2ccc([C@@H]3[C@H]4CN(C(=O)C5CC5)CC(=O)N4[C@H]3CO)cc2)cc1	DENV2 CPE rescue 31 (no result: UUG fidelity, Cneo AK release)
CN(C)C(=O)c1cccc(-c2ccc([C@H]3[C@@H](CO)N4C(=O)CN(C(=O)C5CCCCC5)C[C@@H]34)cc2)c1	none (no result: UUG fidelity, Cneo AK release)
CN(C)C(=O)c1cccc(-c2ccc([C@@H]3[C@@H](CO)N4C(=O)CN(C(=O)C5CCCCC5)C[C@H]34)cc2)c1	DENV2 CPE rescue 39 (no result: UUG fidelity, Cneo AK release)
N#C[C@@H]1[C@H](c2ccc(C#Cc3ccccc3F)cc2)[C@@H](CO)N1C(=O)C1CCCC1	none (no result: UUG fidelity, Cneo AK release)
COc1cc2c(c(OC)c1OC)[C@@]1(c3ccccc3)CCCC[C@H]1[C@@H]2NC(=O)C(F)(F)F	DENV2 CPE rescue 24 (no result: UUG fidelity, Cneo AK release)
CCC[C@@H](CN1CCC[C@H]1CN1C(N)=NC[C@H]1CC(C)C)N1C[C@@H](Cc2ccccc2)N(CCc2ccc(Cl)c(Cl)c2)C1=N	DENV2 CPE rescue 55
